According to patent US10836728B2, “Substituted 3-dialkylaminomethyl-piperidin-4-yl-benzamides and methods of making and using same” (MEBIAS DISCOVERY, INC., priority 2017, dated 2020):

Assays:
[1] = Respiratory depression test (O2 partial pressure); details: rat, SC, at 30 minutes, vehicle 96 mm Hg
sedation = experiment: Accelerating RotaRod (sedation); details: rat, SC
tail flick response = experiment: Rat tail flick nociceptive pain model; type: in vivo; details: SC
Experimental: In rodents, the tail flick response to radiant heat is commonly used as a model to detect potentially useful analgesic agents.
Procedurally, the time (seconds) required to elicit a tail flick response induced by focused radiant heat is measured as the pain threshold in groups of 8 Sprague-Dawley (SD) male rats weighing 110±20 g. Prolongation by 50 percent or more (≥50) of the time required to elicit a tail flick response 15 and 30 minutes following administration of test substance indicates possible analgesic activity. Also, one-way ANOVA followed by Dunnett's test is applied for comparison between vehicle control and treatment groups.

intestinal transit = experiment: Gastrointestinal motility (charcoal transit); details: rat, SC
Experimental: At 30 minutes post subcutaneous dosing, the animals were given a suspension of 5% charcoal in 10% gum arabic solution (2 ml/animal p.o.) and sacrificed 15 minutes later. The intestine was removed, and the length of the gut in cm (GL) as well as extent of charcoal movement from the pylorus to the beginning of the charcoal column in cm (CP) was measured.
Intestinal transit (IT) was calculated as IT=(CP/GL)×100%. A 30% or more (30) increase or decrease intestinal transit (IT), relative to the vehicle control group, was considered significant. The values in animals treated with test compounds compared with vehicle control group were also analyzed by using one-way ANOVA followed by Dunnett's test. Differences are considered statistically significant at P<0.05.

place preference = experiment: Conditioned place preference; details: rat, SC, 5 mg/kg

## CN1CC[C@]23c4c5ccc(O)c4O[C@H]2[C@@H](O)C=C[C@H]3[C@H]1C5 [Morphine, reference compound]
[1]; 1 mg/kg
  O2 partial pressure: the same O2 partial pressure as vehicle
[1]; 5 mg/kg
  O2 partial pressure: 74 mm Hg
sedation; 1 mg/kg
  Sedation, accelerating RotaRod: no sedation
sedation; 5 mg/kg
  Sedation, accelerating RotaRod: significant sedation
Tail flick response
  Dose to reach the ED80 of morphine in rat tail flick: 1 mg/kg
Intestinal transit; 1 mg/kg
  Reduction in transit relative to vehicle: small reduction in transit
Intestinal transit; 5 mg/kg
  Reduction in transit relative to vehicle: significant reduction in transit
Place preference
  Preference for drug chamber over saline chamber: significant preference for the morphine chamber over the saline chamber
